Experimental findings from patent EP4741406A1, “NEUROKININ-1 RECEPTOR ANTAGONIST COMPOUND” (Creadev (Nanjing) Pharmaceutical Technology Co., Ltd., priority 2023, dated 2025) are described below.

SMILES strings stand for the structures.

The data set has as its system red blood cell suspension. Briefly: In vitro human hemolysis assay. Conditions: concentrations as high as 200 µM, 37 °C, 45 minutes.

For `C[C@@H](OC[C@@]1(c2ccccc2)CC[C@]2(CCC(=O)N2)CN1C(=O)OCSSCCS(=O)(=O)O)c1cc(C(F)(F)F)cc(C(F)(F)F)c1` [Example 42], the hemolytic activity result was “no hemolytic activity”.
